Data on 4 substances can be found in patent publication EP0830890A1, “Surfactants for use in liquid/supercritical CO2” (AIR PRODUCTS AND CHEMICALS, INC., priority 1996, dated 1998).

Series [1] in a line: Solubility in CO2 by cloud point determination in a variable volume view cell.
Series [2] in a line: Water uptake by surfactant/CO2 mixture (phase behavior, cloud point). The series is classed as physicochemical. On the procedure:
Utilizing the same phase behavior appartus described in Example 1, a known amount of water was added through a sample loop to a surfactant CO2 mixture of known phase behavior (i.e. its cloud point was first determined). Comparisons were made to water solubilization by pure CO2 and compared to the pure surfactant phase behavior to study the effect the water addition had made, if any, on the measured cloud point for the system.
If the surfactant allowed for the uptake of water, the system would show a single phase at water loadings beyond that normally solubilized by CO2. A cloud point could then be measured for the system, and compared to pure water and pure surfactant phase behavior in CO2.

For “Ethoxylated 2,4,7,9-Tetramethyl-5-decyn-4,7-diol [AP-420]”, the “Pressure Describing Cloud Point Determinations For Surfactant/CO2Concentrations” value is listed as 2420 in series [1] (Surfactant Concn. in CO2 1.3646 wt%, 45°C); 3200 in series [1] (Surfactant Concn. in CO2 1.3646 wt%, 65°C); 2180 in series [1] (Surfactant Concn. in CO2 2.6028 wt%, 25°C); 3320 in series [1] (Surfactant Concn. in CO2 2.6028 wt%, 45°C); 2450 in series [1] (Surfactant Concn. in CO2 3.2104 wt%, 25°C); 3320 in series [1] (Surfactant Concn. in CO2 3.2104 wt%, 45°C). Moreover, in series [1] (Surfactant Concn. in CO2 3.8330 wt%, 60°C), the “Pressure Describing Cloud Point Determinations For Surfactant/CO2Concentrations” value is 3500. Further, the “Wt% of water uptake” value stood at 0.277% in series [2] (Wt% Surfactant in CO2 0.751, 3110 psi 65°C); 0.553% in series [2] (Wt% Surfactant in CO2 0.751, 4010 psi 65°C, listed as 20 wt% ethoxylate); 0.277% in series [2] (Wt% Surfactant in CO2 0.751, 4500 psi 45°C).
Take “Ethoxylated 2,4,7,9-Tetramethyl-5-decyn-4,7-diol [AP-440]”: the “Pressure Describing Cloud Point Determinations For Surfactant/CO2Concentrations” value in series [1] (Surfactant Concn. in CO2 0.6159 wt%, 60°C) is 2390; in series [1] (Surfactant Concn. in CO2 0.6159 wt%, 65°C), 2490; in series [1] (Surfactant Concn. in CO2 1.2484 wt%, 45°C), 3170; in series [1] (Surfactant Concn. in CO2 1.2484 wt%, 65°C), 3320; in series [1] (Surfactant Concn. in CO2 1.8749 wt%, 25°C) it was 2360; in series [1] (Surfactant Concn. in CO2 1.8749 wt%, 35°C), 3280. The “Pressure Describing Cloud Point Determinations For Surfactant/CO2Concentrations” value in series [1] (Surfactant Concn. in CO2 1.8749 wt%, 45°C) is 3640; in series [1] (Surfactant Concn. in CO2 2.8386 wt%, 35°C) it was 3490.
Regarding “Ethoxylated 2,4,7,9-Tetramethyl-5-decyn-4,7-diol [AP-465]”, the “Pressure Describing Cloud Point Determinations For Surfactant/CO2Concentrations” value in series [1] (Surfactant Concn. in CO2 0.2486 wt%, 45°C) amounted to 2200; in series [1] (Surfactant Concn. in CO2 0.8867 wt%, 25°C) it was 3570.
With “Ethoxylated 2,4,7,9-Tetramethyl-5-decyn-4,7-diol [Surfynol 485]”, in series [1] (Surfactant Concn. in CO2 0.2737 wt%, 45°C), the “Pressure Describing Cloud Point Determinations For Surfactant/CO2Concentrations” value turned out to be 3420. The “CO2 solubility (in words)” value in series [1] is “too insoluble at appreciable quantities to be used in the studies”; in series [1] (listed as 85), “poor CO2 solubility”. Also, the “Wt% of water uptake” value in series [2] (Wt% Surfactant in CO2 0.237%, 3980 psi 45°C) stood at 0.276%; in series [2] (Wt% Surfactant in CO2 0.237%, 4400 psi 65°C) it was 0.276%; in series [2] (Wt% Surfactant in CO2 0.237%, 5720 psi 65°C, listed as 85), 0.826%; in series [2] (Wt% Surfactant in CO2 0.237%, 5720 psi 65°C, listed as ethoxylate containing 85 wt% ethylene oxide) it was 0.826%.
